# Biological target: Recombinant human KRAS protein containing the G12C amino acid substitution (Homo sapiens (Human), UniProt P01116, G12C)
# By UniProt entry, the sequences of proteins in these tests, tags left out. Chains listed by the source or under a name are the forms on record and can include a tag or linker. Residues count along the entry.
# UniProt P01116, 1-164 with tags or gaps G12C limits assumed: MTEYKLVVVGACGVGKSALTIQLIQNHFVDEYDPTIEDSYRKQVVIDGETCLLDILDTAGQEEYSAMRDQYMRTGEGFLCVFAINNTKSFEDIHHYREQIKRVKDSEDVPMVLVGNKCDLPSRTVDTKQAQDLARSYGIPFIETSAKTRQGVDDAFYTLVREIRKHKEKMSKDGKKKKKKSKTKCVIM
# Assay: HTRF nucleotide exchange assay, KRAS G12C
# Conditions: read-out: KRAS G12C HTRF NEA IC50; 180 minute incubation with compound at room temperature; at least two independent replicates
structure (smiles),measurement,value
C=CC(=O)N1CC2(CC(c3nc(-c4cnc(OC)s4)c(-c4c(C)ccc5[nH]ncc45)n3C)C2)C1,IC50,1 to 10 µM

# — patent US20260060961A1, “SUBSTITUTED HETEROCYCLES AS RAS INHIBITORS” (Jazz Pharmaceuticals Ireland Limited, priority 2022, published 2026)
